Four molecules from patent publication US12152051B2, “Cyclic dinucleotide analogue, pharmaceutical composition thereof, and application” (SHANGHAI DE NOVO PHARMATECH CO., LTD., priority 2018, dated 2024) can be followed below.

Chains of the proteins cited; added tags and fusions are not shown.
UniProt Q86WV6, whole entry: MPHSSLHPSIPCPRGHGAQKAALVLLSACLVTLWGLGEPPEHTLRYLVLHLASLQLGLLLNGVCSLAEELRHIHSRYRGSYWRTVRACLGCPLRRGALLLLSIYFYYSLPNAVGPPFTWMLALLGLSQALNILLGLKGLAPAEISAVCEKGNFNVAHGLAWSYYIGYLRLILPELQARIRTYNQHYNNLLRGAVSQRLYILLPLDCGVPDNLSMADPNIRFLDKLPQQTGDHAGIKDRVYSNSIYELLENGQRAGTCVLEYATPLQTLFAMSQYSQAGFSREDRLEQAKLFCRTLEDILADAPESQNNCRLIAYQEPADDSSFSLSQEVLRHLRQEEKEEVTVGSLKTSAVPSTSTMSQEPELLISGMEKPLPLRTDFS

The target in one test is STING (Homo sapiens, UniProt Q86WV6). The test can be described thus: STING IFNβ secretion assay (THP-1 cells, AlphaLISA IFN-β kit). The conditions noted are these: 5 h incubation, secretion of IFN-β, tested form: di-ammonium salt. The protocol:
Plated 40 uL THP-1 cells (ATCC) as 16000 cells/well in a 96 well-plate (Corning, 3596). 3-folds dilution compounds were added to appropriate wells. The compounds were diluted with buffer (RPMI1640+2 mM L-glutamine+1× non-essential amino acids+1 mM sodium pyruvate+0.5% Fetal bovine serum), and the top dose of the compound was 100 μM, minimum dose was 1.23 μM. After 5 h incubation, […] supernant was added to 384-well plate (Greiner, Cat: 784075) and the secretion of IFN-β was detected with AllphaLISA IFN-β kit(PerkinElmer, Cat:AL577C). 1× buffer was prepared to dilute the receptor and donor, and then 4 μL 20 μg/mL Anti-pIFNβ AlphaLISA receptor was added to every well. After 30 mins incubation at room temperature, 4 μL 2 nM biotinylated Anti-pIFNβ antibody was added to a 384 well-plate, incubated overnight at 4° C. 10 μL 40 µg/mL Streptavidin (SA) donor which was diluted with 1×buffer was added, and then incubated at room temperature for 30 min. Fluorescence was read with TECAN. The expressed level of IFN-β was proportional to the fluorescence intensity. Drew the curve with Graphpad Prism and analysed EC50 of the compounds.
For orientation: Bead proximity is the source of the signal in Alpha formats.

A further test has as its system THP-1 dual cells. The test is described as follows: Type 1 IFN activation assay (THP-1 dual cells, QUANTI-Luc). The conditions noted are these: PMA-treated THP-1 dual cells, compound in digitonin PB buffer 30 min, then 24 h; expression level of IFN; tested form: di-ammonium salt. The protocol: Plated THP-1 dual cells (Invivogen) as 100000 cells/well in a 96 well-plate, and then phorbol 12-myristate 13-acetate (PMA) was added and the final concentration of PMA was 30 ng/mL. After 24 h incubation, cells were washed with fresh medium for twice, and 3-folds dilution compounds were added to appropriate wells. The compounds were diluted by PB buffer (50 mM HEPES, 100 mM KCl, 3 mM MgCl2, 0.1 mM DTT, 85 mM sucrose, 1 mM ATP, 0.1 mM GTP, 0.2% o bovine serum albumin and 5 μg/ml digitonin) and the top dose was 10 μM, minimum dose was 0.0015 μM. The cells were incubated for 30 min, and then washed with fresh medium for twice again. Add fresh medium, and the cells were incubated for additional 24 h. After incubation, 10 ul supermant and 50 μL QUANTI-Luc (Invivogen) was add to a 96 well-plate, fluorescence was read with TECAN. The express level of IFN was proportional to the fluorescence intensity. Drew the curve with Graphpad Prism and analyse EC50 of the compounds.

The structures appear in SMILES notation.

Usually EC50 stands for the concentration giving half of the maximal effect. Turning to `CO[C@H]1[C@H]2OP(=O)(S)OC[C@H]3O[C@@H](n4cnc5c(N)ncnc54)[C@H](F)[C@@H]3OP(=O)(S)OC[C@H]1O[C@H]2n1c(=O)sc2c(N)ncnc21` (single isomer, unassigned) [6-p2], the results for the concentration giving a half-maximal response (EC50) at STING and in the test on THP-1 dual cells were 58.1 µM and 1.06 µM, respectively.
Turning to `CO[C@H]1[C@H]2OP(=O)(S)OC[C@H]3O[C@@H](n4cnc5c(N)ncnc54)[C@H](F)[C@@H]3OP(=O)(S)OC[C@H]1O[C@H]2n1c(=O)sc2c(N)ncnc21` (single isomer, unassigned) [6-p4], the EC50 was found to be 9.4 µM at STING and 0.311 µM with THP-1 dual cells.
Take `CO[C@H]1[C@H]2OP(=O)(S)OC[C@H]3O[C@@H](n4cnc5c(N)ncnc54)[C@H](F)[C@@H]3OP(=O)(S)OC[C@H]1O[C@H]2n1c(=O)sc2c(N)ncnc21` (single isomer, unassigned) [Compound 6-p3]: the EC50 on STING is 9.84 µM; in the test with THP-1 dual cells, 0.429 µM.
Take `Nc1ncnc2c1ncn2[C@@H]1O[C@@H]2COP(=O)(S)O[C@@H]3[C@H](O)[C@@H](COP(=O)(S)O[C@H]2[C@H]1O)O[C@H]3n1c(=O)sc2c(N)ncnc21` (some centres unmarked) [Compound 2-p1]: the EC50 on STING came to 47.6 µM; with THP-1 dual cells, 2.08 µM.
